Sequences of proteins named here, by UniProt entry; tags and fusion partners are left off. Residues count along the entry.
UniProt P13612, 34-1032: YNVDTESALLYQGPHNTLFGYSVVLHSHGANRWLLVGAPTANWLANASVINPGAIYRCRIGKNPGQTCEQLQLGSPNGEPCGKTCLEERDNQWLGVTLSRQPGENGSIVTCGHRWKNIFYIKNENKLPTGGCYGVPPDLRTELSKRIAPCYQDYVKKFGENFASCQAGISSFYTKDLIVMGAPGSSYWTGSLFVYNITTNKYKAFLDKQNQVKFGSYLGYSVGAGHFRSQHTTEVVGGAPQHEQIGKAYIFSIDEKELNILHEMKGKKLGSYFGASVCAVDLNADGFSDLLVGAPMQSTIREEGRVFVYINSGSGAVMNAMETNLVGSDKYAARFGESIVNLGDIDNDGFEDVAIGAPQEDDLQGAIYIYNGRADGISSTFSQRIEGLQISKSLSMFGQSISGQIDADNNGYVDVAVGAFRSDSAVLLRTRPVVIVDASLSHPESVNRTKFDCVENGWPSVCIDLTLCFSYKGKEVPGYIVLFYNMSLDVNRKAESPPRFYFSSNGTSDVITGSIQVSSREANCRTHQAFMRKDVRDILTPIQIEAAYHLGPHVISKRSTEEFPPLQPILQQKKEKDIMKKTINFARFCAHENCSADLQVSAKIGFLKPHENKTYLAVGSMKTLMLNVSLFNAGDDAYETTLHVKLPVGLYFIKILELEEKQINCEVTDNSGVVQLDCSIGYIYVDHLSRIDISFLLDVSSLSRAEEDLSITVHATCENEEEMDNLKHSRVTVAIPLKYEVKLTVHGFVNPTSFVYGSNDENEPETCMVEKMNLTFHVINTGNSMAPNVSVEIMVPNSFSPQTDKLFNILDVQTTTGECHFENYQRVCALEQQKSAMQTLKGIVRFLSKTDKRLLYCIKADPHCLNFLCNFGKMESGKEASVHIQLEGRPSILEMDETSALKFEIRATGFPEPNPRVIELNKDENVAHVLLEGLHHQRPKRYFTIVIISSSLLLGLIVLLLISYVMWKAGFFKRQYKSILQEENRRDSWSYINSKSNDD
UniProt P26010, 20-798: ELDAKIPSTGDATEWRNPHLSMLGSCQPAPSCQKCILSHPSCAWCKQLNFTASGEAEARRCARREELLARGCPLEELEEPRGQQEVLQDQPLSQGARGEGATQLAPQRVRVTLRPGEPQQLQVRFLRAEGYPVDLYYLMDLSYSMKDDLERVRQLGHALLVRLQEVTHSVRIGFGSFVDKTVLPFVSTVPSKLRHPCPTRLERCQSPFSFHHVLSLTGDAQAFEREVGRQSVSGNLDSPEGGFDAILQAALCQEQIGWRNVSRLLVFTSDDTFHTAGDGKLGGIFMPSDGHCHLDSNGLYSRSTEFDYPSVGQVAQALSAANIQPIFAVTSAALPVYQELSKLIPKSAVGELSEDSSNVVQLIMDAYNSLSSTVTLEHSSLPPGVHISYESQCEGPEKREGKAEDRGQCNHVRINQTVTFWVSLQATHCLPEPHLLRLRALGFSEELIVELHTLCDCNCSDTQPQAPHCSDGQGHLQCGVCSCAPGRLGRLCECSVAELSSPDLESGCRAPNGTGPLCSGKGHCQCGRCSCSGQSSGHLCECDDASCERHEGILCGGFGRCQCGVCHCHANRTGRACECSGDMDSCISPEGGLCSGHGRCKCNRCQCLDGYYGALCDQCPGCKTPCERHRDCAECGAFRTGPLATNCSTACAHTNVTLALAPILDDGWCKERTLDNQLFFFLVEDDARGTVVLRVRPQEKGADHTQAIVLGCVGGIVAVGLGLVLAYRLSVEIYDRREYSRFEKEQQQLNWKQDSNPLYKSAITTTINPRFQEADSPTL

According to patent US20020103111A1, “Inhibitors of MAdCAM-1-mediated interactions and methods of use therefor” (Millennium Pharmaceuticals, Inc., priority 1996, published 2002):

Target: T1, murine MAdCAM-1 (MAdCAM-1/mCk fusion protein); α4β7-bearing HUT 78 cells (Homo sapiens, UniProt P13612+P26010)
T1 construct: host or cells: HUT 78 cells (endogenous α4β7); The MAdCAM-1/mCk partner was made in house in baculovirus-infected Sf9 insect cells, used as neat supernatant and captured by rat anti-mCk antibody
Test: Adhesion of HUT 78 cells to MAdCAM-1/mCk fusion protein bound via capture antibody
Type: cell-based
Settings: for inhibition at 500 µM: HuT78, 500 μM compound; for pIC50: HUT 78 cell adhesion to MAdCAM-1/mCk, average of two determinations
Method: The compounds of the present invention were evaluated for their biological properties.
A soluble fusion protein comprising murine MAdCAM-1 was produced in a baculovirus expression system and used in the adhesion assay. A fusion gene in which sequences encoding the signal peptide and extracellular domain of murine MAdCAM-1 were fused to sequences encoding a constant region of the murine kappa light chain (mCk) was constructed, and cloned into a baculovirus shuttle vector. Fusion protein produced from the resulting construct contained the integrin binding sequences of murine MAdCAM-1 at the amino-terminus, and the mCk sequence at the carboxy-terminus. Recombinant baculovirus encoding the fusion protein was harvested from infected Sf9 insect cells.
Human T-cell lymphoma cells (HUT 78 cells) activated with Mn^+2 were used for the adhesion assay in a 96-well format. HUT 78 cells were labelled by preincubation with ECECF-AM stain (Molecular Probes). Assays were conducted in a final volume of 200 μl. The adhesion of HUT 78 cells to MAdCAM-1/mCk fusion protein bound to wells via rat anti-mCk capture antibody was assessed in the presence or absence of each compound. […] Percent inhibition and IC50 values were determined.
HUT 78 cells (a human T cell lymphoma line; American Type Culture Collection, Accession No. ATCC TIB 161) were maintained in culture for up to one month in RPMI 1640 supplemented with 10% FCS, 20 mM HEPES, and Pen-Strep (1:100). Just prior to use in adhesion assays, cells were labeled with BCECF-AM as follows: 1×10^7 cells were pelleted at 1000 rpm for 10 minutes and resuspended in 25 mL cold PBS (Phosphate Buffered Saline). The cells were pelleted again, resuspended in cold PBS, and pelleted again. The cell pellet was resuspended in 25 ml PBS and labeled with 50 μl BCECF-AM (1 μg/μL in DMSO) for 30 minutes at 37° C. (BCECF-AM; 2′,7′-bis-(2-carboxyethyl)-5-(and-6)-carboxyflourescein, acetoxymethyl ester). The labeled cells were pelleted at 700 rpm for 10 minutes, resuspended in 25 ml cold Assay Buffer and pelleted.
The assay was performed in a 96-well format. Plates were coated overnight at 4° C. with 53 μl/well of a 5 μg/mL solution of rat anti-mCk in carbonate buffer. The plates were blocked for 1 hour at 37° C. with 100 μL/well of 1% BSA in PBS. The BSA/PBS solution was removed, and 50 μL of MAdCAM-mCk supernatant was added neat to each well. The assay was conducted under conditions in which capture antibody was the limiting reagent.
Cell adhesion was measured in the presence or absence of compounds. The compounds were resuspended in 100% DMSO, subsequently diluted 1:10 in water, and finally diluted again 1:10 in the assay: 50 μL of 2X Assay Bufler, 30 μL water, 20 μL of compound were added to each well. […] Cell adhesion occurred in 30 minutes at ambient temperature, after which plates were washed with 50 mM Tris/2 mM MnCl2, pH 7.2 using an EL 404 Microplate Autowasher (BIO-TEK Instruments) using the following wash parameters: wash volume=500 μL; two wash cycles; wash depth=80; aspirating after each wash.
Additional determinations were conducted as needed, so that each IC50 was determined over a range which encompassed the IC50.

SMILES | inhibition at 500 µM (HUT 78 cells, Mn2+ activated) | % Adhesion Inhibition 500 μM (500 μM compound, HUT 78 cells, Mn2+ activated, 500 µM) | pIC50
CC(=O)N[C@@H](CC(C)C)C(=O)N[C@@H](CC(=O)O)C(=O)N[C@@H](C)C(=O)N[C@@H](CO)C(=O)N[C@@H](CC(C)C)C(N)=O [Example 2, Ac-Leu-Asp-Ala-Ser-Leu] | 47% |  | 
CC(=O)N[C@@H](CC(C)C)C(=O)N[C@@H](CC(=O)O)C(=O)N[C@H](C(=O)N[C@@H](CO)C(=O)N[C@@H](CC(C)C)C(N)=O)[C@@H](C)O [Example 10, Ac-Leu-Asp-Thr-Ser-Leu] |  | 50% | 
CC(=O)NCC(=O)N[C@@H](CC(C)C)C(=O)N[C@@H](CC(=O)O)C(=O)N[C@H](C(=O)N[C@@H](CO)C(N)=O)[C@@H](C)O [Example 13, Ac-Gly-Leu-Asp-Thr-Ser] | 43% |  | 3.13
CC(=O)N[C@@H](CCCNC(=N)N)C(=O)NCC(=O)N[C@@H](CC(C)C)C(=O)N[C@@H](CC(=O)O)C(=O)N[C@H](C(N)=O)[C@@H](C)O [Example 16, Ac-Arg-Gly-Leu-Asp-Thr] | 48% |  | 3.27
CC(=O)N[C@@H](CC(C)C)C(=O)N[C@@H](Cc1ccccc1)C(=O)N[C@H](C(=O)N[C@@H](CO)C(=O)N[C@@H](CC(C)C)C(N)=O)[C@@H](C)O [Example 40, Ac-Leu-Phe-Thr-Ser-Leu] | 29% |  | 3.52
CC(=O)N[C@@H](CC(C)C)C(=O)N[C@@H](CCC(=O)O)C(=O)N[C@H](C(=O)N[C@@H](CO)C(=O)N[C@@H](CC(C)C)C(N)=O)[C@@H](C)O [Example 41, Ac-Leu-Glu-Thr-Ser-Leu] | 98% |  | 4.22
CC(=O)N[C@@H](CC(C)C)C(=O)N[C@@H](CC(=O)O)C(=O)N[C@@H](CO)C(=O)N[C@@H](CO)C(=O)N[C@@H](CC(C)C)C(N)=O [Example 43, Ac-Leu-Asp-Ser-Ser-Leu] | 38% |  | 3.21
CC(=O)N[C@@H](CC(C)C)C(=O)N[C@@H](CC(=O)O)C(=O)N[C@H](C(=O)N[C@H](C(=O)N[C@@H](CC(C)C)C(N)=O)[C@@H](C)O)[C@@H](C)O [Example 44, Ac-Leu-Asp-Thr-Thr-Leu] | 98% |  | 4.00
CC(=O)N[C@@H](CC(C)C)C(=O)N[C@@H](CC(=O)O)C(=O)N[C@H](C(=O)N[C@@H](CO)C(=O)N[C@@H](Cc1ccccc1)C(N)=O)[C@@H](C)O [Example 45, Ac-Leu-Asp-Thr-Ser-Phe] | 86% |  | 3.84
CC(=O)N[C@@H](CC(C)C)C(=O)N[C@@H](CC(=O)O)C(=O)N[C@H](C(=O)N[C@@H](CO)C(=O)N[C@@H](CC(C)C)C(N)=O)C(C)C [Example 47, Ac-Leu-Asp-Val-Ser-Leu] |  |  | 4.15

pIC50: −log10 of the molar value.
